## AlphaSeq binding of Ab-14 heavy chain variants to a spike HR2 peptide

The measurements come from Engelhart et al. 2022 (doi:10.1038/s41597-022-01779-4) through the FLAb antibody collection.

Binding partner: SARS-CoV-2 spike HR2 peptide, sequence PDVDLGDISGINAS.

Each scFv is VH, the linker GGGGSGGGGSGGGGS, VL, as in the parent Ab-14, and differs from it in the CDRs of the heavy chain only.
VH: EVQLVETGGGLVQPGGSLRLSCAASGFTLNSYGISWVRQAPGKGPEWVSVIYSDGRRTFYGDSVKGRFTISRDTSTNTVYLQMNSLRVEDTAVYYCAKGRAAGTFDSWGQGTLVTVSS
VL: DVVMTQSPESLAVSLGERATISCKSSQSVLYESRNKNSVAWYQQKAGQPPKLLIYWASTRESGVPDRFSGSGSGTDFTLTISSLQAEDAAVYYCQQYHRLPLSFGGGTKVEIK

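The parent was found by panning a naive human phage display library on the peptide. Variants in AAYL49 differ from the parent at up to three CDR positions; double and triple changes were sampled at random. AlphaSeq pools MATa yeast showing the antibodies with MATalpha yeast showing the peptide. Pairs that bind mate more often; barcode pairs of the diploids are counted by sequencing. Each replicate has its own calibration line, from reference interactions of the BCL2 family. Mating was done three times.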

The parent's heavy chain CDRs are GFTLNSYGIS, VIYSDGRRTFYGDSVK, GRAAGTFDS; each variant's own CDRs replace them letter for letter.
Scale: log10 of Kd in nM, estimated from mating counts; low values are strong binders.
The mean shown is taken over the replicates in which the pair was detected.
An entry "n.d." has no value in the source: the pair was not observed among the diploids in that replicate. This suggests poor binding but is not conclusive.
Entries are sorted by rising average, undetected variants last.

| # | log10 Kd (nM) by replicate | mean log10 Kd (nM) | CDR-H1 | CDR-H2 | CDR-H3 |
|---|---|---|---|---|---|
| 1 | 2.14 2.26 2.37 | 2.26 | GDTLNAYGIS | VIYSDGRRTFYGRSVK | GRAAGTFDS |
| 2 | 2.33 1.65 2.91 | 2.30 | GFTLNSYGIS | VIYGDGRRTFYGDSVK | GRLAITFDS |
| 3 | n.d. 3.21 n.d. | 3.21 | GFTLNSYGIS | VIYSDGRRTFYGDSVK | GRGAGTFDF |
| 4 | 3.64 n.d. 2.90 | 3.27 | GFTLNVYGIS | VIYSDGRRTCYGDSVK | ARAAGTFDS |
| 5 | n.d. 3.33 n.d. | 3.33 | GFTHNSYGIS | VIYSDGRRTFYGDSDK | GRAAGTFDK |
| 6 | 3.70 2.70 3.67 | 3.36 | GFTLCSYGIS | VIYSDGRRTFYGDSVK | GRAAGTMDS |
| 7 | n.d. 3.62 n.d. | 3.62 | PFTLNSYGHS | VIYSDGRRTFYWDSVK | GRAAGTFDS |
| 8 | 3.55 3.33 4.27 | 3.71 | GFTLPSYGIC | VKYSDGRRTFYGDSVK | GRAAGTFDS |
| 9 | 3.72 n.d. n.d. | 3.72 | GFTLNSYGIS | VIYSDGRLTFYGDSVK | GRAAGNFDS |
| 10 | n.d. 3.93 n.d. | 3.93 | GFTLNSIGII | VIYSDGRRTFYGDSVK | GRAAGTFHS |
| 11 | 4.02 n.d. n.d. | 4.02 | GFTLDSYGIS | VIYSDGRRTFYGQSVK | GRAADTFDS |
| 12 | n.d. 4.04 n.d. | 4.04 | GFTLNSYGIT | VIYSDGRATFYGDSVK | GRAAGTFDV |
| 13 | n.d. n.d. 4.20 | 4.20 | GFTLNSYGIS | VIYEDGRRTFEGDSVK | GRAAGQFDS |
| 14 | n.d. 3.49 5.22 | 4.35 | HFTLNSYGIS | VIYSDGRRTFKGDSVK | GRAAGTFDS |
| 15 | n.d. n.d. 4.49 | 4.49 | GFTLNSIGIS | VIYDDGRRTFYGDSVK | GRAAGLFDS |
| 16 | n.d. n.d. 4.73 | 4.73 | GFTLNSYGIS | VIYSDGCRTFSGNSVK | GRAAGTFDS |
| 17 | n.d. 4.79 n.d. | 4.79 | GFTLNSYGIY | VIYSDGRVTFYGDSVK | GRAAGFFDS |
| 18 | 4.21 5.56 n.d. | 4.89 | GFTLNSYGIP | VIYSCGRRTFYGDSVK | GRAAGTFDS |
| 19 | n.d. n.d. 4.89 | 4.89 | GFTLNSYGIS | VIYSKGRRTFYGDSVK | GRSAGTFDS |
| 20 | 6.10 n.d. 3.74 | 4.92 | GFTCNSYGIS | VIYSDGRRTFYGDHVM | GRAAGTFDS |
| 21 | 5.11 n.d. n.d. | 5.11 | GFTLNSAGIS | VIYSDGRRTFLGDSVK | GRAAGTFDS |
| 22 | 6.59 n.d. n.d. | 6.59 | GFTLNSYGIS | VIYSDGRRTFYGDVSK | GRAAGTFDS |
| 23 | n.d. n.d. n.d. | n.d. | LFTLNSYGIS | VIYSDGRRTFYKDSMK | GRAAGTFDS |
| 24 | n.d. n.d. n.d. | n.d. | GFTLNSYGIS | VIYSDGRRTFYYDSVK | GRARDTFDS |
| 25 | n.d. n.d. n.d. | n.d. | GFTLNSYGIS | VIYSDGRRTFYIDSFK | GRATGTFDS |
| 26 | n.d. n.d. n.d. | n.d. | GFTLNSFGIS | VPYSDGRRTFYGDSVK | GRADGTFDS |
| 27 | n.d. n.d. n.d. | n.d. | GFTLNSYGIS | VIYIDGRRTFYGDSVK | GRAADTMDS |
| 28 | n.d. n.d. n.d. | n.d. | GFTLNSYGIS | VIYSSGRRTFYMDSVK | GQAAGTFDS |
| 29 | n.d. n.d. n.d. | n.d. | GFNLDSYGIS | VIYSDGRRTFYGDSVK | GRAAGTFDP |
| 30 | n.d. n.d. n.d. | n.d. | GFTLNSYGIS | VIYSDIRRTFYADSVK | GRQAGTFDS |
| 31 | n.d. n.d. n.d. | n.d. | GFTLNSYGIS | VIYTDGRRTFYGLSVK | GRAAGTFFS |
| 32 | n.d. n.d. n.d. | n.d. | GFTLNSYGIS | VIYSDGWRTKYGDSVK | GRAAGTFDE |
| 33 | n.d. n.d. n.d. | n.d. | GFTLNSYGIS | VIYCDGRRTFYHDSVK | GRAAGTFDS |
| 34 | n.d. n.d. n.d. | n.d. | GFTLNSYGIS | CIYSDGRRTFYGDSPK | GRAAGFFDS |
| 35 | n.d. n.d. n.d. | n.d. | GFTLNYYGIS | VIYSLGRRTFYGCSVK | GRAAGTFDS |
| 36 | n.d. n.d. n.d. | n.d. | GFTLNSYGIS | VIYSSGDRTFYGDSVK | GLAAGTFDS |
| 37 | n.d. n.d. n.d. | n.d. | GFTLNSYGIS | VIYSDGRRTFYGDSVK | GRADGDFKS |
| 38 | n.d. n.d. n.d. | n.d. | GFTLNSYGIS | VIYKDGRRTFYGNTVK | GRAAGTFDS |
| 39 | n.d. n.d. n.d. | n.d. | GFTLNSYGIS | VGYSDGRRTFYGDSVK | GRAAGTSDW |
| 40 | n.d. n.d. n.d. | n.d. | GFTLNIYGIS | VIYSDGQRTFYGDSVK | GRAAGTFDG |
| 41 | n.d. n.d. n.d. | n.d. | GFTLNSYGIS | VIYSDGRRNFYGDCVK | GRAAHTFDS |
| 42 | n.d. n.d. n.d. | n.d. | TFTLNSYMIS | VIRSDGRRTFYGDSVK | GRAAGTFDS |
| 43 | n.d. n.d. n.d. | n.d. | GFTPNSYIIS | VIYSDCRRTFYGDSVK | GRAAGTFDS |
| 44 | n.d. n.d. n.d. | n.d. | GFTLNSYGIS | VIYHDGRRTFYGDSGK | GRAAGTFDE |
| 45 | n.d. n.d. n.d. | n.d. | GFTLPSVGIS | VIYSDGRRTFYGDNVK | GRAAGTFDS |
| 46 | n.d. n.d. n.d. | n.d. | GFTLNSYGIS | VQYSDGRRTFYGDSLK | GRAAGTFDS |
| 47 | n.d. n.d. n.d. | n.d. | GFTLNSYQIM | VIYSDGWRTFYGDSVK | GRAAGTFDS |
| 48 | n.d. n.d. n.d. | n.d. | GFTLNSYGIS | YIYSDGRRTFYGDSVK | GRVALTFDS |
| 49 | n.d. n.d. n.d. | n.d. | GFTLNSYGIS | VIYSDGRRTKYGLSVK | DRAAGTFDS |

8 of these entries, quoted again:

CDR-H1	CDR-H2	CDR-H3	log10 Kd (nM) by replicate	mean log10 Kd (nM)
LFTLNSYGIS	VIYSDGRRTFYKDSMK	GRAAGTFDS	n.d. n.d. n.d.	n.d.
GFTLNSFGIS	VPYSDGRRTFYGDSVK	GRADGTFDS	n.d. n.d. n.d.	n.d.
GFTLNSYGIY	VIYSDGRVTFYGDSVK	GRAAGFFDS	n.d. 4.79 n.d.	4.79
GFTLNSYGIS	VIYSDGRRTKYGLSVK	DRAAGTFDS	n.d. n.d. n.d.	n.d.
GFTLPSYGIC	VKYSDGRRTFYGDSVK	GRAAGTFDS	3.55 3.33 4.27	3.71
GFTPNSYIIS	VIYSDCRRTFYGDSVK	GRAAGTFDS	n.d. n.d. n.d.	n.d.
GFTLNSYGIS	VIYSDGCRTFSGNSVK	GRAAGTFDS	n.d. n.d. 4.73	4.73
GFTLNSYGIS	VIYSDGRRTFYGDSVK	GRADGDFKS	n.d. n.d. n.d.	n.d.

Background: pairings of library AAYL49 with three empty control strains gave a value in 15% of cases (median 4.06, 5th percentile 2.83). Values in that range, when seen in few replicates, are hard to tell from nonspecific mating.
For reference, the parent read 0.65 as the reference entry and 4.11 (one replicate of three) as a member of this library.